Measurements as given in BindingDB's records for US10829480.

The chains behind the UniProt entries cited, without tags or fusion partners.
UniProt P41146, whole entry: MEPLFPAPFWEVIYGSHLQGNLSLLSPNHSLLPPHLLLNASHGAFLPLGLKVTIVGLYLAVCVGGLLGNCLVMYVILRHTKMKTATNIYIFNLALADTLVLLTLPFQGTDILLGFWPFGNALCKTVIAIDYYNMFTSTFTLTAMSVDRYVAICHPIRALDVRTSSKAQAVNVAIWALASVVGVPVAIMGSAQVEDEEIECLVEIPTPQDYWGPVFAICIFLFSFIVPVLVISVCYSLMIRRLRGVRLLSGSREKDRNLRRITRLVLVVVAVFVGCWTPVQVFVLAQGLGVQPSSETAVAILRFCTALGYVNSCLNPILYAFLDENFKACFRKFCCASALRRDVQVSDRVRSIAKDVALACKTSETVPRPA

Molecular target: Nociceptin receptor (Homo sapiens, UniProt P41146)
Test: ASSAY_NAME: Receptor Binding Assay DESCRIPTION: Mu-Opioid Peptide (hMOP): The hMOP receptor binding assay was performed as homogeneous SPA-assay (scintillation proximity assay) using the assay buffer 50 mM TRIS-HCl (pH 7.4) supplemented with 0.052 mg/ml bovine serum albumin (Sigma-Aldrich Co. St. Louis. Mo.). The final assay volume (250 μl/well) included 1 nM of [N-allyl-2.3-3H]naloxone as li

**Q.** `CN(C)[C@]1(c2ccccc2)CC[C@]2(CC1)CN(Cc1cccc(C3CC3)c1)C(=O)N2` was tested. Which Ki did it give?
**A.** 90.5 nM

**Q.** Which Ki does the source give for `CN(C)[C@]1(c2ccccc2)CC[C@]2(CC1)CN(Cc1cccc(S(C)(=O)=O)c1)C(=O)N2CC1CCC1` here?
**A.** 0.8 nM

**Q.** Which Ki does the source give for `COc1ccc(CN2C[C@]3(CC[C@](c4ccccc4)(N(C)C)CC3)N(CC3CCCO3)C2=O)cc1` (stereo partly drawn) here?
**A.** 4 nM
